Measured values: patent US11793885B2, “Substituted benzo[5,6][1,4]diazepino[1,2-a]indoles for the treatment of proliferative disorders” (priority 2017, dated 2023)
Read-outs that look alike come from different tables or passages of the source.

B1: M-143 or 144: "crude, sulfonated compound 144 thus prepared was added to a solution of huMov19 antibody"; "2.9 mol 144/mol antibody" (conjugate, chains of the INN, looked up)
heavy: QVQLVQSGAEVVKPGASVKISCKASGYTFTGYFMNWVKQSPGQSLEWIGRIHPYDGDTFYNQKFQGKATLTVDKSSNTAHMELLSLTSEDFAVYYCTRYDGSRAMDYWGQGTTVTVSSASTKGPSVFPLAPSSKSTSGGTAALGCLVKDYFPEPVTVSWNSGALTSGVHTFPAVLQSSGLYSLSSVVTVPSSSLGTQTYICNVNHKPSNTKVDKKV[left out - human IgG1 Fc]
light: DIVLTQSPLSLAVSLGQPAIISCKASQSVSFAGTSLMHWYHQKPGQQPRLLIYRASNLEAGVPDRFSGSGSKTDFTLTISPVEAEDAATYYCQQSREYPYTFGGGTKLEIKRTVAAPSVFIFPPSDEQLKSGTASVVCLLNNFYPREAKVQWKVDNALQSGNSQESVTEQDSKDSTYSLSSTLTLSKADYEKHKVYACEVTHQGLSSPVTKSFNRGEC
modifications: payload compound 143/144
B2: M-167: "conjugate huMov19-167" (conjugate, chains of the INN, looked up)
heavy: B1 heavy
light: B1 light
modifications: payload compound 167
B3: M-sSPDB-30: "crude sulfo-SPDB-30 was then added to a solution containing huMov19 antibody"; "2.5 mol 30/mol antibody" (conjugate, chains of the INN, looked up)
heavy: B1 heavy
light: B1 light
modifications: sulfo-SPDB linker, payload 30

Assays:
KB (cervical carcinoma) = experiment: in vitro cytotoxicity assay, KB cells; format: cell-based, human; settings: M9346A conjugate
[1] = system: NCI-H2110 (Non Small Cell Lung Carcinoma); experiment: in vitro cytotoxicity assay, NCI-H2110 cells; format: cell-based; settings: M9346A conjugate
[2] = system: Ishikawa (endometrial adenocarcinoma); experiment: in vitro cytotoxicity assay, Ishikawa cells; format: cell-based; settings: M9346A conjugate
HEC-1B = experiment: in vitro cytotoxicity assay, HEC-1B cells; format: cell-based; settings: M9346A conjugate
[3] = system: FRα-negative cells 300-19 in mixed culture with 300-19 transfected with human FRα; experiment: bystander cytotoxicity assay (300.19 −/+FRα system); format: cell-based; settings: 300.19 cell system −/+FRα, 4 days
Method: A mixed culture of FRα-positive cells 300-19 transfected with human FRα and FRα-negative cells 300-19 was exposed to conjugates at concentrations that are not toxic for the negative cells but highly toxic for the receptor-positive cells (killing 100% of the cells). Cells were incubated for 4 days, and the inhibition of cell proliferation was determined by Cell Titer Glo (Promega) according to the manufacturer's protocol.

[4] = with excess unconjugated antibody, read-out: IC50 KB + block
[5] = without excess unconjugated antibody, read-out: IC50 KB − block
[6] = with excess unconjugated antibody, read-out: IC50 H2110 + block
[7] = without excess unconjugated antibody, read-out: IC50 H2110 − block

Molecule | IC50 (KB (cervical carcinoma); [4]) | IC50 (KB (cervical carcinoma); [5]) | IC50 [1, 6] | IC50 [1, 7] | IC50 ([2]; with excess unconjugated antibody, read-out: IC50 Ishikawa + block) | IC50 ([2]; without excess unconjugated antibody, read-out: IC50 Ishikawa − block) | IC50 (HEC-1B; with excess unconjugated antibody, read-out: IC50 HEC-1B + block) | IC50 (HEC-1B; without excess unconjugated antibody, read-out: IC50 HEC-1B − block) | % FRα-negative cells killed at 4e−10M conjugate [3]
B1 | 3 nM | 0.01 nM | 40 nM | 2 nM |  |  |  |  | 
B2 |  |  |  |  | 20 nM | 9 nM | 3 nM | 3 nM | 13%
B3 | > 4 nM | > 4 nM | > 40 nM | > 40 nM |  |  |  |  | 
